Source: PubChem BioAssay (National Center for Advancing Translational Sciences (NCATS))
Compounds with a hit are over-represented: about 3.7% of the library has one in this group of screens.
Nrf2 block = Nrf2 pathway inhibition | 360,000 tested, 2.1% active | AID 504444 | Potency, µM (top dose mostly 46 µM), without a hit: top-dose activity change, negative = inhibition, actives largely listed as inhibitors | A549 ARE-Fluc reporter, luciferase luminescence, 18-24 h; also: potency is read from the fitted curve at half-maximal effect; % is scaled to controls: 0 for no effect and ±100 for the full control effect; nearly all actives have a fitted effect of over 60% in size
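Nrf2 function is reported as luminescence of an ARE-controlled luciferase in A549 cells. Compounds were tested at several concentrations, and a CellTiter-Fluor read on the same wells flagged cytotoxicity.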
Nrf2 activator = activators of Nrf2 (ARE) signaling. AREc32 ARE-luciferase reporter (MCF7-derived line), luminescence, 24 h. Potency, µM (top dose mostly 46.1 µM), for inactives: at the highest dose activation, actives largely listed as activators. 410,000 tested, 0.31% active. AID 624171; also: potency is read from the fitted curve at half-maximal effect; % of control where 0% means no effect; nearly all actives have a fitted effect of over 65% in size
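Luminescent ARE reporter assay in AREc32_Fluc cells: overnight plating at 37 deg C, 24 hr compound incubation, Steady-Glo added, 30 min RT before reading.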
ClpP mod = qHTS Assay for Activators of ClpP; 340,000 tested, 1.9% active; Potency, µM (highest dose often 57.5 µM), without a hit: at the top dose activity change, negative = active; purified B. subtilis ClpP, FRET peptide cleavage, 20 min; active = well fitted falling curve with a large enough effect; inconclusive = small, poorly fitted or top-dose-only effect; inactive = no such curve, though single readings can be large or run the other way; also: potency is read from the fitted curve at half-maximal effect; the source files actives as falling curves though it sought activators and does not explain the sign; nearly all actives have a fitted effect of over 65% in size
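Purified B. subtilis ClpP, 10 microg/mL final in Tris/HCl pH8 with KCl, BSA, glycerol and Tween-20, cleaved an Abz/nitrotyrosine-quenched decapeptide. Fluorescence (ex 320, em 430) was read at 0 and 20 min at room temperature. Delta was normalized to 5.8 microM ADEP and DMSO/no-enzyme controls.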
IL-2 act = activators of IL-2; IL-2 activation reporter assay, cell-based qHTS; stimulated with anti-CD3/CD4/CD28 beads; in transgenic mouse T cells; activation, % (series mostly up to about 46 µM); 360,000 tested, 0.065% active; AID 652025; in the data active = activation above about 50%; inconclusive = mostly about 30% to 49%; also: 0% is about no effect
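Unstimulated transgenic mouse T cells preincubated 60 min with compound, then stimulated with anti-CD3/anti-CD4-coated beads plus anti-CD28 for 18 h at 37 degrees C. IL-2 response read as EGFP and DsRed fluorescence by plate cytometry.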
A549 viability = counter-screen for Nrf2 inhibitors: cytotoxicity in A549 cells. Potency, µM (series often up to 46 µM), for inactives: top-dose activity change, negative = cytotoxicity, usual class: inhibitors. 390,000 tested, 0.16% active. AID 504648. A549 ARE-Fluc cells, CellTiter-Fluor viability, 18-24 h; also: potency is read from the fitted curve at half-maximal effect; % is scaled to controls: 0 for no effect and ±100 for the full control effect
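Cytotoxicity counterscreen: CellTiter-Fluor fluorescence was measured in A549 ARE_Fluc cells after 18-24 h of compound exposure in a concentration series. The subsequent BugLite luminescent read reports ARE-luciferase activity.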
miR-21 reporter = miR-21 reporter, rising signal | HeLa miR-21 FLuc reporter, luciferase, 48 h | Potency, µM (highest dose often 38.3 µM), for inactives: at the top dose reporter change, positive = more light | 340,000 tested, under 10 active | AID 2288; active = well fitted rising curve with a large enough effect; inconclusive = small, poorly fitted or top-dose-only effect; inactive = no such curve, though single readings can be large or run the other way;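 further: % of control where 0% means no effect; miR-21 action dims this reporter so a rising signal means less miR-21 action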
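HeLa miR-21-FLuc reporter line, endogenous miR-21; 2000 cells/well in DMEM/10% FBS; compound titration up to ~40uM final, 48 h, 37 degree Celsius; luciferase detection reagent, 15 min lysis, CCD luminescence.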
Numbers without * were called inactive; ? = inconclusive; / = not tested or not shown. Unless noted, calls follow the shape of the dose curve; as a rule, active = well fitted curve in the direction sought with a large enough effect; inconclusive = small, poorly fitted or top-dose-only effect, or another doubt; inactive = no such curve, though single readings can be large; an effect the other way counts as inactive or inconclusive.

1) Cc1ccc(NC(=O)Nc2nnc(N(CC(C)C)CC(C)C)s2)cc1Cl
2) CN(CC(=O)Nc1ccccc1Br)C(=O)c1cc(Cl)nc2ccccc12
3) CN(CC(=O)Nc1ccccc1Br)C(=O)c1ccccc1-c1nc2ccccc2s1
4) O=C(/C=C/c1ccc(Cl)cc1Cl)Nc1ccc(CN2CCOCC2)cc1
5) O=C(CCCOc1ccc(Br)cc1)Nc1ccc(S(=O)(=O)N2CCOCC2)cc1
6) O=C(COc1ccc(Br)cc1)Nc1ccc(-c2nnc(-c3ccco3)o2)cc1

Assay by compound,1,2,3,4,5,6
miR-21 reporter,-55%,/,4%,1%,/,-26%
A549 viability,7%,2%,1%,-12%,1%,-7%
Nrf2 block,25%,0%,2%,7.3µM*,15µM*,?
Nrf2 activator,0%,-1%,0%,0%,3%,3%
IL-2 act,/,0,-6,0,-1,2
ClpP mod,0%,1%,28µM*,0%,/,10µM*

7) O=C(COc1ccccc1)Nc1ccc(-c2ccc(N3CCOCC3)nn2)cc1
8) O=C(COc1ccc(S(=O)(=O)N2CCOCC2)cc1)Nc1ccc(Br)cc1
9) CN1CCN(c2ccc(-c3cccc(NC(=O)COc4ccccc4)c3)nn2)CC1
10) Cc1cc2c(s1)c1cnn(Cc3c(F)cccc3F)c(=O)c1n2C
11) COc1ccccc1/C=C/c1onc(C)c1S(=O)(=O)N1CCC(C(=O)N2CCC(C)CC2)CC1
12) Cc1cccc(CN2CCC(CNC(=O)Cn3ncc4c([nH]c5ccc(C)cc54)c3=O)CC2)c1

Assay by compound,7,8,9,10,11,12
miR-21 reporter,/,/,/,/,-1%,0%
A549 viability,3%,6%,-4%,7%,0%,23%
Nrf2 block,7%,?,?,-16%,/,?
Nrf2 activator,-1%,1%,0%,/,3%,0%
IL-2 act,0,1,-5,/,/,/
ClpP mod,16µM*,2%,2%,/,0%,-19%

The closing 3 entries of the section above open the next one:
10) Cc1cc2c(s1)c1cnn(Cc3c(F)cccc3F)c(=O)c1n2C
11) COc1ccccc1/C=C/c1onc(C)c1S(=O)(=O)N1CCC(C(=O)N2CCC(C)CC2)CC1
12) Cc1cccc(CN2CCC(CNC(=O)Cn3ncc4c([nH]c5ccc(C)cc54)c3=O)CC2)c1
13) O=S(=O)(c1ccc(NC(=S)Nc2ccccc2)cc1)N1CCOCC1
14) O=C(COc1ccccc1Cl)Nc1ccc(CN2CCOCC2)cc1
15) CCOc1ccccc1OCC(=O)Nc1ccc2[nH]c(=O)[nH]c2c1
16) O=C(COc1ccc2ccc(=O)oc2c1)Nc1ccc(CN2CCOCC2)cc1
17) O=C(COc1ccc(Br)cc1)Nc1ccc(CN2CCOCC2)cc1
18) O=C(COc1ccccc1Cl)Nc1ccc2[nH]c(=O)[nH]c2c1

Assay by compound,10,11,12,13,14,15,16,17,18
miR-21 reporter,/,-1%,0%,-4%,-8%,/,1%,9%,/
A549 viability,7%,0%,23%,6%,-4%,4%,-1%,-9%,-3%
Nrf2 block,-16%,/,?,5%,23µM*,1%,1%,23µM*,1%
Nrf2 activator,/,3%,0%,0%,2%,14%,0%,0%,3%
IL-2 act,/,/,/,-2,-4,1,-1,-1,0
ClpP mod,/,0%,-19%,0%,-3%,-1%,4%,0%,16µM*

19) O=C(CCc1ccccc1)NC(=S)Nc1ccc(S(=O)(=O)N2CCOCC2)cc1
20) Cc1ccc(NC(=O)c2sc3ncn(Cc4cccc(F)c4)c(=O)c3c2C)c(Br)c1
21) COc1ccc(-c2nc(CSc3nnc(C)n4c3cc3sccc34)c(C)o2)cc1
22) COc1ccccc1N(C)C
23) CCOc1ccc(NC(=S)N(CCc2c(C)[nH]c3ccccc23)Cc2cccnc2)cc1
24) COc1cc(C(=O)N(Cc2cccnc2)Cc2cc3cc4c(cc3[nH]c2=O)OCCO4)cc(OC)c1OC

Assay by compound,19,20,21,22,23,24
miR-21 reporter,0%,3%,2%,/,-1%,-14%
A549 viability,11%,-1%,3%,/,1%,-2%
Nrf2 block,-9%,/,6%,/,-2%,9%
Nrf2 activator,6%,0%,3%,/,4%,0%
IL-2 act,0,/,/,/,-2,1
ClpP mod,10µM*,-10%,?,0%,-1%,28µM*

25) COc1ccc(NC(=S)N(CCc2c(C)[nH]c3ccc(C)cc23)Cc2cccnc2)cc1
26) CCOc1ccc2[nH]c(=O)c(CN(Cc3cccnc3)C(=O)Nc3ccccc3OC)cc2c1
27) COc1ccc2[nH]c(=O)c(CN(Cc3cccnc3)C(=O)Nc3ccccc3)cc2c1
28) COc1ccc2cc(-c3nnc(Nc4ccccc4)s3)c(=O)oc2c1
29) Cc1ccc(-n2nc(C)c3c(C(=O)NCCc4ccc(S(N)(=O)=O)cc4)cc(C)nc32)cc1
30) COc1ccc(C2Nc3ccccc3C(=O)N2Cc2ccccc2)cc1COc1ccc(C#N)cc1 (centres undefined)

Assay by compound,25,26,27,28,29,30
miR-21 reporter,4%,0%,17%,-19%,23%,/
A549 viability,?,-15%,-8%,3%,5%,2%
Nrf2 block,21µM*,-18%,?,/,?,-8%
Nrf2 activator,5%,1%,-1%,0%,5%,/
IL-2 act,-2,-1,-1,/,/,/
ClpP mod,-3%,?,32µM*,-13%,21%,/

31) Cc1cccc(NC(=O)C(=O)NCC(c2cccnc2)N2CCN(Cc3ccccc3)CC2)c1 (centres undefined)
32) O=C(O)Cc1ccc2sc(-c3ccccc3)nc2c1
33) COC(=O)Cc1ccc2sc(-c3ccccc3)nc2c1
34) COc1ccc(S(=O)(=O)NCCCCCC(=O)O)cc1C(=O)O
35) COc1ccc(S(=O)(=O)NCCCCC(=O)O)cc1C(=O)O
36) Cc1ccc(C)c(N2CCN(C(=O)c3cc4c(=O)n(Cc5cccnc5)ccc4nc3C)CC2)c1

Assay by compound,31,32,33,34,35,36
miR-21 reporter,-10%,-27%,-41%,-2%,2%,8%
A549 viability,-1%,-7%,-1%,-1%,-33%,-2%
Nrf2 block,-8%,11%,?,-2%,16µM*,-24%
Nrf2 activator,0%,28%,?,0%,0%,7%
IL-2 act,/,1,0,0,1,/
ClpP mod,0%,?,28µM*,0%,1%,-26%

37) Cc1ccc(N=Cc2c(C)[nH]n(-c3nc4ccccc4[nH]3)c2=O)cc1
38) CCN1CCN(c2cc3c(cc2F)c(=O)c(S(=O)(=O)c2ccc(OC)cc2)cn3CC)CC1
39) CCOC(=O)c1cn(CC)c2cc(N3CCOCC3)c(F)cc2c1=O
40) CCn1cc(C(=O)NCc2cccc(F)c2)c(=O)c2cc(F)c(N3CCN(C(=O)c4ccco4)CC3)cc21
41) CCn1cc(S(=O)(=O)c2ccc(OC)cc2)c(=O)c2cc(F)c(N3CCC(C)CC3)cc21
42) CCn1cc(S(=O)(=O)c2ccc(OC)cc2)c(=O)c2cc(F)c(N3CCCCCC3)cc21
43) CCn1cc(C(=O)O)c(=O)c2cc(F)c(N3CCN(S(=O)(=O)c4ccc(NC(=O)OC)cc4)CC3)cc21
44) Cc1ccccc1Nc1nc(Nc2ccccc2C)nc(SC2=NCCS2)n1

Assay by compound,37,38,39,40,41,42,43,44
miR-21 reporter,22%,0%,-3%,-1%,-3%,-5%,0%,21%
A549 viability,7%,-13%,-3%,?,0%,12%,6%,-22%
Nrf2 block,21µM*,10%,/,?,16µM*,0%,7%,26µM*
Nrf2 activator,-1%,1%,-1%,3%,0%,-1%,0%,0%
IL-2 act,-1,/,0,-1,/,/,1,-1
ClpP mod,-7%,7.9µM*,32µM*,25µM*,?,-14%,18µM*,-2%
